# Patent US6677376B1, “Non-peptidic cyclophilin binding compounds and their use” (Guilford Pharmaceuticals, Inc., priority 1999, dated 2004)
# Amino acid sequences for entries named in this document (tags omitted).
# UniProt P62937, whole entry: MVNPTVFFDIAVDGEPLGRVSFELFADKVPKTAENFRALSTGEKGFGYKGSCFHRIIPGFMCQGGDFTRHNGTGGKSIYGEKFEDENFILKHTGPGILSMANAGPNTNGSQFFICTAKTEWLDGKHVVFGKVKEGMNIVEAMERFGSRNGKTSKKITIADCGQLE
# Experiments:
# spinal motor neurons = test: Neuroprotection assay: THA neurotoxicity in spinal cord slice cultures; settings: THA 200 μM + compound 10 μM, primary cultures of spinal motor neurons
# CyP A = CyP A (Homo sapiens, UniProt P62937); settings: 10 µM
SMILES,neuroprotective activity (number of viable neurons) (spinal motor neurons),inhibition (CyP A) [%]
O=C(Nc1cccc(NC(=O)Nc2ccon2)c1)Nc1ccon1,displays neuroprotective activity,
Cc1ccc(NC(=O)N(Cc2ccccc2)Cc2ccccc2)cc1NC(=O)N(Cc1ccccc1)Cc1ccccc1,displays neuroprotective activity,
O=C(NCC(c1ccccc1)c1ccccc1)Nc1cccc(NC(=O)NCC(c2ccccc2)c2ccccc2)c1,,100
COc1cccc(NC(=O)NC2CCCC(NC(=O)Nc3cccc(OC)c3)C2)c1 (stereo not shown),displays neuroprotective activity,
